One compound from article PMC10601436 (ACS Omega, 2023) can be followed below.

Sequences of proteins named here, by UniProt entry; tags and fusion partners are left off.
UniProt P27487, whole entry: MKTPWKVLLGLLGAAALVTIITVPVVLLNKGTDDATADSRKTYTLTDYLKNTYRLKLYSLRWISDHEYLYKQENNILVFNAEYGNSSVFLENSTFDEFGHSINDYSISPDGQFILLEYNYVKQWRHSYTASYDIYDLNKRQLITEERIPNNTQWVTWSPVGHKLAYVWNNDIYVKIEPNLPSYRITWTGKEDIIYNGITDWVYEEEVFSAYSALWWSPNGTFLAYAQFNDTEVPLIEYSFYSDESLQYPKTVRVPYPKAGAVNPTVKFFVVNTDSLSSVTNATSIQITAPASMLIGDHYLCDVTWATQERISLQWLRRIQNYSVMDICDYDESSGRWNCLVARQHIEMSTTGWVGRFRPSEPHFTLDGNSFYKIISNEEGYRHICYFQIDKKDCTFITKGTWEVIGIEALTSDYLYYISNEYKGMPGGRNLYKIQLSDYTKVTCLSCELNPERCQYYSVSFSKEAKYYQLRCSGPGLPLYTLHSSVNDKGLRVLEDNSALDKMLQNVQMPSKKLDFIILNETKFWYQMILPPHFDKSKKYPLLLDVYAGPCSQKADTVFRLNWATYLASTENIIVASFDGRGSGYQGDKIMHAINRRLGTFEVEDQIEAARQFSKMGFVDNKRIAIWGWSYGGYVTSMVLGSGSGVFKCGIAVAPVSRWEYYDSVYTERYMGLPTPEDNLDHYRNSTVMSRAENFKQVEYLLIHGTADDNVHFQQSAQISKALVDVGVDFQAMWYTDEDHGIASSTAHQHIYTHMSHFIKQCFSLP

The target in the experiment is hDPP-IV (Homo sapiens, UniProt P27487). Put plainly: DPP-IV inhibitory assay. It counts as biochemical.

As to `CC(C)[C@H](NC(=O)[C@@H](N)Cc1c[nH]c2ccccc12)C(=O)N[C@@H](CCC(N)=O)C(=O)O` [WVQ], the IC50 was 366 µM.

What is called IC50 is the concentration that gives 50% inhibition.
